Target: T1, Aurora A (Homo sapiens, UniProt O14965)
T1 construct: Recombinant proteins containing kinase domain were purchased from Millipore (Billerica, Mass.); purchased Millipore (Billerica, Mass.)
T1 sequence (O14965 133-383 limits assumed): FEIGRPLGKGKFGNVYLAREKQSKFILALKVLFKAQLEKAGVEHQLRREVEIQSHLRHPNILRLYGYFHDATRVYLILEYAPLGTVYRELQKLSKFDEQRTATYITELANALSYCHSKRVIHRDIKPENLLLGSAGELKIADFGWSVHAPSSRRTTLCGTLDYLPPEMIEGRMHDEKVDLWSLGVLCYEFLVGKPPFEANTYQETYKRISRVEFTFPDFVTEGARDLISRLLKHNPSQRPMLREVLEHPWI
Assay: HTRF kinase assay, Aurora A
Format: biochemical
Conditions: dose response curves; read-out: IC50 against Aurora A
Method: Inhibition of kinase activity against a variety of recombinant kinases (c-Met, Met M1250T, Ron, VEGF2, EGFR, TrkA, PI3Kγ, IKKβ Insulin receptor, Aurora A) was measured using homogeneous time-resolved fluorescence (HTRF) assays. Briefly, assays are based on the phosphorylation of peptide substrates in the presence of ATP. Resulting phosphorylated substrates are detected by TR-FRET (Time Resolved-Fluorescence Resonance Energy Transfer) signal. Recombinant proteins containing kinase domain were purchased from Millipore (Billerica, Mass.). Optimal enzyme, ATP, and substrate concentrations were established for each enzyme using HTRF KinEASE kit (Cisbio) according to the manufacturer's instruction. Assays are consisted of enzymes mixed with serially diluted compounds and peptide substrates in kinase reaction buffer (250 mM HEPES (pH 7.0), 0.5 mM orthovanadate, 0.05% BSA, 0.1% NaN3). Following the addition of reagents for detection, TR-FRET signal was measured using EnVision multi-label reader (Perkin Elmer, Waltham, Mass.).

Question: `O=C1Nc2ccc([N+](=O)[O-])cc2/C1=C1/Nc2ccc(O)cc2C1=NO` [Compound 11b, (2′Z, 3′E)-5′-Hydroxy-5-nitro-indirubin-3′-oxime] was tested. Which IC50 did it give?
Answer: Its IC50 is 1000 nM.

— patent publication US8859783B2, “Indirubin-3′-oxime derivatives as potent cyclin dependent kinase inhibitors” (Anygen Co., Ltd., priority 2010, dated 2014)
